High-throughput results from PubChem BioAssay.
Hits are enriched below; roughly 0.43% of the tested compounds scored in any of these assays.
Rango dissoc inh: inhibitors of RanGTP-induced Rango-importin beta complex dissociation; Biochemical FRET Rango-importin beta, RanGTP-induced dissociation; O95149+P62826; AID 540253; actives 0.071% (n = 340,000); Potency, µM (top dose mostly 46.1 µM), inactives show top-dose activity change, negative = inhibition; also: potency is read from the fitted curve at half-maximal effect; % of control where 0% means no effect; nearly all actives have a fitted effect of over 45% in size
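Rango (0.1 uM)–importin beta (0.25 uM) complex; RanGTP-RCC1 trigger; 45 min RT; CFP/YFP FRET read.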
B2AR arrestin: recruits beta-arrestin to the human beta2-adrenergic receptor. P07550. beta-arrestin recruitment to beta2AR, cell-based reporter. Potency, µM (doses to about 46.1 µM), inactives show at the highest dose activation, hits mostly activators. actives 0.02% (n = 330,000). AID 492947; active = well fitted curve in the direction sought with a large enough effect; inconclusive = small, poorly fitted or top-dose-only effect, or another doubt; inactive = no such curve, though single readings can be large; an effect the other way counts as inactive or inconclusive;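 also: potency is read from the fitted curve at half-maximal effect; 0% = DMSO controls and full agonism = EC100 isoproterenol or metaproterenol; nearly all actives have a fitted effect of over 65% in size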
Rango complex inh: prevents formation of the Rango-importin beta complex; AID 540263; actives 0.031% (n = 340,000); Rango CFP/YFP FRET sensor + importin beta, 45 min; Potency, µM (series often up to 92.2 µM), for the others: at the highest dose inhibition of complex formation; Q14974;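 also: potency is read from the fitted curve at half-maximal effect; 0% = DMSO wells and 100% = buffer wells lacking importin beta; nearly all actives have a fitted effect of over 15% in size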
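FRET biosensor Rango (snurportin 1 IBB between N-terminal EYFP and C-terminal Cerulean), 50 nM in PBS/1 mM DTT/0.02% Tween-20/0.1% BSA, preincubated 5 min RT with compound; 0.125 microM importin beta added, 45 min RT, CFP/YFP FRET ratio read.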
Mm-Cpn inhibitor: blocks the Methanococcus maripaludis chaperonin Mm-Cpn; purified Mm-Cpn ATPase, ADP Transcreener TR-FRET; Potency, µM (titrated, usually from 76.9 µM), for the others: top-dose activity, negative = inhibition, actives largely listed as inhibitors; actives 0.031% (n = 330,000); active = well fitted curve in the direction sought with a large enough effect; inconclusive = small, poorly fitted or top-dose-only effect, or another doubt; inactive = no such curve, though single readings can be large; an effect the other way counts as inactive or inconclusive; also: potency is read from the fitted curve at half-maximal effect; % is scaled to controls: 0 for no effect and ±100 for the full control effect; nearly all actives have a fitted effect of over 80% in size
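Purified archaeal Mm-CPN (25nM final) preincubated 10 min at 37degC with compound, then 10uM ATP for 30 min at 37degC; ADP measured by HTRF Transcreener TR-FRET; buffer 30 mM TRIS pH 7.4, 100mM KCl, 5mM MgCl2, 1mM DTT.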
CCT chaperon mod: cytosolic chaperonin activity modulation; purified chaperonin ATPase assay, HTRF ADP detection, 30 min; activity change, % (no concentration beside the values), hits read low; actives 0.3% (n = 360,000); AID 651819; in the data active = activity change below about -30%; also: % is scaled to controls: 0 for no effect and ±100 for the full control effect
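Nucleotide hydrolysis assay: TRiC at 20–40 nM final (set by batch activity) with 10 uM ATP, 30 min at 37 °C, in presence of 76 uM compound. Detection by competitive ADP HTRF, 30 min ambient.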
* hit, by the source's call; ? = inconclusive; . = no result; [ ] = dose if it differs, or a comment. Unless noted, calls follow the shape of the full dose curve.

Assay codes: A = Rango dissoc inh; B = B2AR arrestin; C = Rango complex inh; D = Mm-Cpn inhibitor; E = CCT chaperon mod
> Cc1cc2nn(-c3ccc(F)cc3)nc2cc1N
  A: 9.2µM*	B: -1%	C: ?	D: 0%	E: -4
> O=C(C1CCN(Cc2cccs2)CC1)N1CCN(Cc2ccc3c(c2)OCO3)CC1
  A: 1%	B: 1%	C: 0%	D: 0%	E: -1
> Cc1nn(-c2ccc(N3CCCCC3)nn2)c(C)c1CCC(=O)Nc1ccc(F)c(F)c1
  A: 10%	B: -1%	C: 7%	D: 2%	E: 0
> O=C1CSC(c2ccccc2)N1Cc1ccccc1 (centres undefined)
  A: .	B: -1%	C: .	D: 2%	E: .
> CCOc1ccc2[nH]c3c(NCCN(CC)CC)ncnc3c2c1
  A: 11%	B: 0%	C: 0%	D: -1%	E: 2
> COc1ccc2[nH]c3c(NCCN(C(C)C)C(C)C)ncnc3c2c1
  A: -7%	B: -1%	C: -4%	D: -4%	E: -52*
> COc1ccc(CCNC(=O)Cn2nc(C)c3c(C)n(-c4ccc(C)cc4)nc3c2=O)c(OC)c1
  A: .	B: -1%	C: .	D: -6%	E: .
> O=C(O)CCCC(=O)Nc1ccc(Cl)cc1
  A: 0%	B: 0%	C: 1%	D: -3%	E: -65*
> Cc1cc(C)c(NC(=O)CCCC(=O)O)c(Cl)c1
  A: -10%	B: 0%	C: 0%	D: 1%	E: -50*
> CC1(C)Cc2c(cnn2-c2cccc(F)c2)C(NC(=O)CSc2ccccn2)C1 (centres undefined)
  A: ?	B: -1%	C: 1%	D: 0%	E: -26
> N=C(N)c1ccc(N=Nc2c(O)ccc3c2[nH]c2ccccc23)cc1
  A: -3%	B: .	C: 58µM*	D: .	E: -6
> Cc1cccc(C)c1NC(=O)C(=O)c1cn(C)c2ccccc12
  A: 19%	B: 0%	C: -2%	D: 56µM*	E: 1
> Cc1cc(NC(=O)C(=O)c2cn(C)c3ccccc23)no1
  A: 0%	B: 0%	C: 5%	D: 1%	E: 3
> COc1ccc(C2C(C#N)=C(N)OC3=C2C(=O)CC(C)(C)C3)c([N+](=O)[O-])c1OC (centres undefined)
  A: 23µM*	B: -1%	C: ?	D: 0%	E: 0
> COc1cc(C2C(C#N)=C(N)OC3=C2C(=O)CC(C)(C)C3)c([N+](=O)[O-])cc1OC (centres undefined)
  A: ?	B: 0%	C: ?	D: -2%	E: -5
> COc1ccc(-c2ccc(-c3noc(-c4ccccc4C)n3)c(OC)n2)cc1
  A: 6.5µM*[inhibitor]	B: 0%	C: ?	D: -19%	E: -1
> O=C(O)CC1(CC(=O)Nc2nccs2)CCCCC1
  A: 14%	B: .	C: -2%	D: .	E: -1
> O=C(O)c1cc(Cl)c2c(c1)OCO2
  A: 19%	B: 0%	C: 4%	D: 0%	E: -61*
> CC1CCN(C(=O)COC(=O)c2cc(Cl)c3c(c2)OCO3)CC1
  A: -4%	B: 0%	C: 0%	D: 0%	E: 1
> Cc1ccc2nc(Nc3ccc(C)c(Cl)c3)c3nncn3c2c1
  A: 12%	B: -1%	C: -1%	D: 1%	E: 2
> Cc1ccc(Nc2nc3ccccc3n3cnnc23)cc1Cl
  A: 1%	B: -1%	C: -4%	D: -7%	E: -50*
> O=C(NC(=O)N1CCN(c2ccc([N+](=O)[O-])cn2)CC1)c1ccccc1F
  A: -23%	B: 0%	C: 0%	D: -2%	E: 0
> CN(NC(=O)c1ccccc1F)c1ccc([N+](=O)[O-])cn1
  A: 0%	B: 0%	C: -1%	D: 1%	E: -43*
> CCCCNc1c(-c2cccc(-c3ccc(OC)cc3)c2)nc2ccc(C)cn12
  A: ?	B: -4%	C: ?	D: -1%	E: -35*
> Cc1ccc(NC(=O)CCC(=O)NNC(=O)C(C)(C)C)c(C)c1
  A: 7%	B: 0%	C: 0%	D: -4%	E: -92*
> CCCNC(=O)Nc1ccc(C)cc1C
  A: 23%	B: 0%	C: -3%	D: 2%	E: -45*
> CC(=O)Nc1ccc(NC(=O)Nc2ccc(C)cc2C)cc1
  A: -3%	B: 0%	C: -2%	D: 1%	E: 0
> CCC(=O)NNC(=O)CCC(=O)Nc1ccc(C)cc1C
  A: 2%	B: 0%	C: 1%	D: 1%	E: 1
> Cc1cc(C)c(S(=O)(=O)NCCn2c(C)cc3ccccc32)c(C)c1
  A: ?	B: 0%	C: ?	D: 35µM*	E: 0
> CCOC(=O)C1CCCN(C(=O)c2ccc3nc(-c4ccccc4)c(-c4ccccc4)nc3c2)C1 (centres undefined)
  A: -12%	B: 0%	C: 0%	D: 40µM*	E: -3

Reprinted at random: three entries already listed
Assay codes: A = Rango dissoc inh; B = B2AR arrestin; C = Rango complex inh; D = Mm-Cpn inhibitor; E = CCT chaperon mod
> Cc1ccc(NC(=O)CCC(=O)NNC(=O)C(C)(C)C)c(C)c1
  A: 7%	B: 0%	C: 0%	D: -4%	E: -92*
> Cc1cc(C)c(S(=O)(=O)NCCn2c(C)cc3ccccc32)c(C)c1
  A: ?	B: 0%	C: ?	D: 35µM*	E: 0
> CN(NC(=O)c1ccccc1F)c1ccc([N+](=O)[O-])cn1
  A: 0%	B: 0%	C: -1%	D: 1%	E: -43*

Following part:
Assay codes: A = Rango dissoc inh; B = B2AR arrestin; C = Rango complex inh; D = Mm-Cpn inhibitor; E = CCT chaperon mod
> Cc1ccc([C@H]2C[C@@H](n3cc(C4CC4)nn3)[C@H](O)CN2CC2CCCCC2)cc1
  A: .	B: .	C: .	D: .	E: -74*
> CCOC(=O)C1CCN(C(=O)CCCn2nc(C)c3c(C)n(-c4ccc(C)cc4)nc3c2=O)CC1
  A: 24%	B: 0%	C: -9%	D: 1%	E: 0
> COc1ccc(NC(=O)C2CCCN(c3nn4c(=O)cc(C)nc4s3)C2)c(OC)c1 (centres undefined)
  A: -16%	B: 0%	C: -5%	D: -3%	E: -1
> CCOC(=O)c1c(P(=O)(N2CCOCC2)N2CCOCC2)noc1N
  A: -21%	B: 1%	C: -1%	D: 0%	E: -54*
> CCOC(=O)c1c(N)sc(C(=O)N2CCOCC2)c1C
  A: -4%	B: 0%	C: -3%	D: -2%	E: -4
> CC(=O)NC(c1ccco1)c1cc(Br)c2cccnc2c1O (centres undefined)
  A: .	B: ?	C: .	D: 1%	E: .
> O=C(Nc1cc(F)cc(F)c1)c1sc(Cl)nc1-c1ccccc1
  A: -3%	B: 0%	C: 3%	D: 50µM*	E: -2
> CC1Cc2ccccc2N1C(=O)CN1C(=O)CN(C)C(=O)c2ccccc21 (centres undefined)
  A: 8%	B: 0%	C: 0%	D: 2%	E: -35*
> CCCCn1c(C)cc2c(c1=O)[C@H]1O[C@](CCCC)(Cc3c1ccc1ccccc31)O2
  A: .	B: -2%[9.22 µM]	C: .	D: -1%[15.4 µM]	E: .
> CCOc1ccc(NC2=C(Cl)C(=O)N(C3CCCCC3)C2=O)cc1
  A: 6%	B: -1%	C: 0%	D: -2%	E: -32*
> Cn1nnnc1Sc1ncnc2scc(-c3ccsc3)c12
  A: 0%	B: -2%	C: 0%	D: -1%	E: .
> Cc1cccc(C)c1NC(=O)COC(=O)c1ccc2[nH]c3c(c2c1)CCCC3
  A: 23µM*	B: 0%	C: ?	D: 0%	E: 0
> O=C(COC(=O)c1ccc2[nH]c3c(c2c1)CCCC3)Nc1ccccc1
  A: ?	B: -2%	C: ?	D: 1%	E: -1
> CN(C)c1ccc(/C=N/NC(=O)CN2CCCCC2)cc1Br
  A: -5%	B: 0%	C: -1%	D: -1%	E: -1
> CC(=O)N1CCC(N(CCN2CCOCC2)C(=S)Nc2c(C)cccc2C)CC1
  A: -10%	B: -1%	C: 3%	D: ?	E: -35*
> CCN(CC)S(=O)(=O)c1ccc(N2CCN(c3ccccc3O)CC2)nc1
  A: -1%	B: 0%	C: -2%	D: 3%	E: 0
> CCN(CC)S(=O)(=O)c1ccc(C(=O)NC(=S)N2CCN(c3ccccc3O)CC2)cc1
  A: .	B: .	C: .	D: .	E: -52*
> COc1ccc(-c2[nH]nc3nc(N4CCN(C(=O)c5ccoc5)CC4)cc(C(F)(F)F)c23)cc1
  A: .	B: .	C: .	D: .	E: -40*
> CCOCCc1nnc(NC(=O)COC)s1
  A: -13%	B: 0%	C: -1%	D: 1%	E: 2
> Cc1ccc(OCC(=O)N2CCN(C(=O)CCC3CCCC3)CC2)cc1
  A: -10%	B: 0%	C: 1%	D: 0%	E: -76*
> O=C(CCC1CCCC1)N1CCN(C(=O)COc2ccccc2)CC1
  A: -15%	B: 0%	C: -3%	D: 1%	E: 0
